Reference: patent EP2106802A1, “Modified peptides as synthetic vaccines in amyloid-associated disease” (SIGMA-TAU Industrie Farmaceutiche Riunite S.p.A., priority 2008, dated 2009)

Tests used:
[1] = system: T lymphocytes expressing CXCR5 in PBMCs of healthy donors; test: CXCR5 expression in T-lymphocytes after peptide stimulation (flow cytometry); assay type: cell-based, human; conditions: for Percentage of T-lymphocytes expressing CXCR5: peptides 5ug/ml, 4 days after third stimulation
Experimental: In order to evaluate the expression of a specific marker (CXCR5) in cultured […], the cells, 4 days after the third stimulation, were washed twice and stained with anti-CXCR5, in PBS supplemented with 0.5% FCS and 0.01%NaN3 at 4°C. After twenty minutes they were washed twice and analysed on FACSCanto flow cytometer (Becton Dickinson). The data were analyzed using FlowJo software (TreeStar, CA, USA).
Table 3. The CXCR5 expression measured as % of T lymphocytes expressing CXCR5 in PBMCs of healthy donors vs total lymphocytes (median, 1st and 3rd quartile) has been reported. Friedman Repeated Measures Analysis of Variance on Ranks has been performed. Column 1: number of different donors (Pz); column 2: the percentage of control (CTR) not challenged T lymphocytes expressing CXCR5; columns 3-12: the percentage of T lymphocytes expressing CXCR5 after the stimulation with different peptides.
CXCR5, a chemokine transmembrane receptor belonging to the CXC chemokine receptor family plays an essential role in B cell activation (Legler D.F., et al., J. Exp. Med., 1998, 187, 4, 655). The CXCR5 expression was measured as % of T-lymphocytes expressing CXCR5 versus total lymphocytes (median, 1st and 3rd quartile) and Friedman Repeated Measures Analysis of Variance on Ranks was performed.

[2] = system: IFN-γ

Seq.2: Aβ[1-16] fragment of the Aβ[1-42] sequence (DAEFRHDSGYEVHHQK)
Percentage of T-lymphocytes expressing CXCR5, 1st and 3rd quartine ([1]; 1st and 3rd quartile of 10 donors): 9.9-44.0%
expression of CXCR5 with respect to CTR ([1]; T-lymphocytes, Friedman test, result in words): statistically different expression of CXCR5 with respect to CTR
Percentage of T-lymphocytes expressing CXCR5 ([1]; donor Pz1): 23.09%
Percentage of T-lymphocytes expressing CXCR5 ([1]; donor Pz2): 21.09%
Percentage of T-lymphocytes expressing CXCR5 ([1]; donor Pz3): 83.07%
Percentage of T-lymphocytes expressing CXCR5 ([1]; donor Pz4): 2.08%
Percentage of T-lymphocytes expressing CXCR5 ([1]; donor Pz5): 9,9%
Percentage of T-lymphocytes expressing CXCR5 ([1]; donor Pz6): 6,9%
Percentage of T-lymphocytes expressing CXCR5 ([1]; donor Pz7): 14,8%
Percentage of T-lymphocytes expressing CXCR5 ([1]; donor Pz8): 44.00%
Percentage of T-lymphocytes expressing CXCR5 ([1]; donor Pz9): 46.05%
Percentage of T-lymphocytes expressing CXCR5, Median ([1]; median of 10 donors, * P = <0,001 (Friedman)): 22.9* %
production of IFN-γ in challenged T-lymphocytes [2]: statistically significative production of IFN-γ
